What was measured:
[1] = biological target: T1, CETP (Homo sapiens, UniProt P11597); test: CETP fluorescence test with enriched CETP; conditions: read-out: IC50 [nM] fluorescence test; enriched CETP fraction from human plasma; transfer of fluorescent cholesterol ester between liposomes; 37° C. for 4 h
Procedure: (§1) CETP is obtained in partially purified form from human plasma by differential centrifugation and column chromatography and used for the test. To this end, human plasma is adjusted to a density of 1.21 g per ml using NaBr and centrifuged at 4° C. at 50 000 rpm for 18 h. The bottom fraction (d>1.21 g/ml) is applied to a Phenyl-Sepharose 26/10 HP fast flow-column (Pharmacia), washed with PBS buffer and then eluted with distilled water. 10 parts of PBS buffer and 1% (w/v) BSA are added to the eluate. The CETP-active fractions are pooled.
Measurement of the CETP-catalyzed transfer of a fluorescent cholesterol ester between liposomes [modified according to the procedure of Bisgaier et al., J. Lipid Res. 34, 1625 (1993)]:
For the production of the donor liposomes, 1 mg of cholesteryl 4,4-difluoro-5,7-dimethyl-4-bora-3a,4a-diaza-s-indacene-3-dodecanoate (cholesteryl BODIPY® FL C12, Molecular Probes) is dissolved in 2 ml of chloroform with 5.35 mg of triolein and 6.67 mg of phosphatidylcholine. The solvent is removed at medium temperature in a SpeedVac and the residue is dried under high vacuum for 1 h. […]
The change in the fluorescence at 485/535 nm is a measure of the CE transfer; the inhibition of the transfer in comparison to the control batch without substance is determined.

The chains behind the UniProt entries cited, without tags or fusion partners. Residues count along the entry.
UniProt P11597, 18-493 limits assumed: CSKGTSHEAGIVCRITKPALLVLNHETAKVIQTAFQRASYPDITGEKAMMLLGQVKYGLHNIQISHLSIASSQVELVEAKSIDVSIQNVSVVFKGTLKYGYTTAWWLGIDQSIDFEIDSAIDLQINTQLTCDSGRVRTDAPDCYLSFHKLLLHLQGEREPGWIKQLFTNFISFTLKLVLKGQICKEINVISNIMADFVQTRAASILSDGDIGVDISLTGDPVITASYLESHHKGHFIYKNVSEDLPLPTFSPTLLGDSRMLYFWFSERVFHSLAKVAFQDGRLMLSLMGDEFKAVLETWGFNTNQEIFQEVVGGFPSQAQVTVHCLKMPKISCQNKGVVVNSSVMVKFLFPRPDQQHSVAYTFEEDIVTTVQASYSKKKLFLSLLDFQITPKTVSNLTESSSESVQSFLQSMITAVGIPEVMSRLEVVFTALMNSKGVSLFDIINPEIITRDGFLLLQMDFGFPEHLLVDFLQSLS

[2] = biological target: T1, CETP; test: CETP-SPA test; conditions: read-out: IC50 [nM] SPA test; transfer of 3H-cholesterol ester from human HDL to biotinylated LDL; 37° C. for 18 h
Procedure: as §1
For testing of the CETP activity, the transfer of ^3H-cholesterol ester from human HD lipoproteins to biotinylated LD lipoproteins is measured. The reaction is ended by addition of streptavidin-SPA® beads (Amersham) and the transferred radioactivity is determined directly in a liquid scintillation counter.
In the test batch, 10 μl of HDL-3H-cholesterol ester (about 50 000 cpm) are incubated at 37° C. for 18 h with 10 μl of biotin-LDL (Amersham) in 50 mM Hepes/0.15 M NaCl/0.1% bovine serum albumin (RSA)/0.05% NaN3 pH 7.4 containing 10 μl of CETP (1 mg/ml) and 3 μl of a solution of the substance to be tested (dissolved in 10% DMSO/1% RSA). 200 μl of the SPA-streptavidin bead solution (TRKQ 7005) are then added, incubated further with shaking for 1 h and then measured in a scintillation counter. […]

- IC50 [1]: 14 nM
- IC50 [2]: 6 nM
SMILES: CC(C)c1cc2c(c(-c3ccc(F)cc3)c1[C@@H](F)c1ccc(C(F)(F)F)cc1)[C@@H](O)CC1(CC1)O2
